# In ChEMBL document CHEMBL1125862, “(1S)-1-(aminomethyl)-2-(arylacetyl)-1,2,3,4-tetrahydroisoquinoline and heterocycle-condensed tetrahydropyridine derivatives: members of a novel class of very potent kappa opioid analgesics” (J Med Chem, 1991):
# Amino acid sequences for entries named in this document (tags omitted). A change or cut given only in a name is not applied to a line headed by its entry.
# UniProt P41144: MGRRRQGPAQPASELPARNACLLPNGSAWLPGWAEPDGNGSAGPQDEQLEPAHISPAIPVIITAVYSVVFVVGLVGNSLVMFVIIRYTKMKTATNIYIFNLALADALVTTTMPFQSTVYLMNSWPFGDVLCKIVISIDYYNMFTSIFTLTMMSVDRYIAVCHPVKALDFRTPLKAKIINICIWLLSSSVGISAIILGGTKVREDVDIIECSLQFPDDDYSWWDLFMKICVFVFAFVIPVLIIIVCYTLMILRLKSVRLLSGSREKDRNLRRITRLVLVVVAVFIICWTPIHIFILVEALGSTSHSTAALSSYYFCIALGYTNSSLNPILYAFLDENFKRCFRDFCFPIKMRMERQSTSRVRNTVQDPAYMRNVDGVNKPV
# pKi: −log10 of the molar value.
# Experiments:
# Mus musculus [1] = assay: Phenyl-p-benzoquinone-induced abdominal constriction after subcutaneous administration in mouse (in vivo); settings: Abdomen
# [2] = biological target: Kappa-type opioid receptor (Cavia porcellus, UniProt P41144); assay: Displacement of [3H]-BRL 52537 from opioid receptor kappa site in guinea pig
# Mus musculus [3] = assay: In vivo antinociceptive activity in mouse tail flick test following p.o. administration.
# Mus musculus [4] = assay: In vivo antinociceptive activity using mouse tail flick test, subcutaneous administration
smiles,measurement,setting,value
CN(C(=O)Cc1ccc(Cl)c(Cl)c1)C1CCCCC1N1CCCC1 (centres undefined),ED50,Mus musculus [1],1.61 µmol/kg
same,pKi,[2],8.66
same,ED50,Mus musculus [3],29.1 µmol/kg
same,ED50,Mus musculus [4],5.78 µmol/kg
